Experimental data taken from ChEMBL document CHEMBL3853350, “Discovery of a Selective Phosphoinositide-3-Kinase (PI3K)-γ Inhibitor (IPI-549) as an Immuno-Oncology Clinical Candidate” (ACS Med Chem Lett, 2016).

Sequences of proteins named here, by UniProt entry; tags and fusion partners are left off. A change or cut given only in a name is not applied to a line headed by its entry.
UniProt P48736: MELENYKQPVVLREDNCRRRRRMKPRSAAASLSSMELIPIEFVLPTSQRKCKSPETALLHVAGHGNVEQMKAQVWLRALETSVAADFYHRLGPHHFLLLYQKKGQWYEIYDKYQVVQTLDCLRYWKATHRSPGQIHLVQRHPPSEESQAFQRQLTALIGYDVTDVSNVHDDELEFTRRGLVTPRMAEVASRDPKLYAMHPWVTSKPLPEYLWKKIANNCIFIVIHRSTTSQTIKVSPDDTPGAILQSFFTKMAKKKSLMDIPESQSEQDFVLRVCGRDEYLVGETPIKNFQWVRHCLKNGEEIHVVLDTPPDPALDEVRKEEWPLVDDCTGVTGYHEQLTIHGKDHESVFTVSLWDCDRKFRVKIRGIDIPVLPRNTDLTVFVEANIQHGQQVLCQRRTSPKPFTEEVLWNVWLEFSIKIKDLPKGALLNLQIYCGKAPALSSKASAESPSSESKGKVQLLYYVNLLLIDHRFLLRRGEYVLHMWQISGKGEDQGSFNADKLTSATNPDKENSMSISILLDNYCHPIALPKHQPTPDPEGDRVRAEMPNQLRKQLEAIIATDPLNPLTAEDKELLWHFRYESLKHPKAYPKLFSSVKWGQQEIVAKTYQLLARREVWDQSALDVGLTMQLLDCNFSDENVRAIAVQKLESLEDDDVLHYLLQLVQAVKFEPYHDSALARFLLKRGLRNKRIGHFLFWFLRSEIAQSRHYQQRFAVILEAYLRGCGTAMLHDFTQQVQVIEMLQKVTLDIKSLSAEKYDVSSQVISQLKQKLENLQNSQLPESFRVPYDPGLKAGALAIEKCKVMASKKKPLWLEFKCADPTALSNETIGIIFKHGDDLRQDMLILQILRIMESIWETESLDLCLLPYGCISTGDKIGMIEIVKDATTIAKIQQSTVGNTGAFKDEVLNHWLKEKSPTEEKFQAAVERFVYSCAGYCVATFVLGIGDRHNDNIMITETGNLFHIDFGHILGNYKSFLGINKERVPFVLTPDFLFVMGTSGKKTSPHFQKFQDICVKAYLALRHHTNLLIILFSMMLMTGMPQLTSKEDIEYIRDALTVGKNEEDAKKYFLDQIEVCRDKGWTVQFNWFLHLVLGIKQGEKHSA
UniProt P42336, whole entry: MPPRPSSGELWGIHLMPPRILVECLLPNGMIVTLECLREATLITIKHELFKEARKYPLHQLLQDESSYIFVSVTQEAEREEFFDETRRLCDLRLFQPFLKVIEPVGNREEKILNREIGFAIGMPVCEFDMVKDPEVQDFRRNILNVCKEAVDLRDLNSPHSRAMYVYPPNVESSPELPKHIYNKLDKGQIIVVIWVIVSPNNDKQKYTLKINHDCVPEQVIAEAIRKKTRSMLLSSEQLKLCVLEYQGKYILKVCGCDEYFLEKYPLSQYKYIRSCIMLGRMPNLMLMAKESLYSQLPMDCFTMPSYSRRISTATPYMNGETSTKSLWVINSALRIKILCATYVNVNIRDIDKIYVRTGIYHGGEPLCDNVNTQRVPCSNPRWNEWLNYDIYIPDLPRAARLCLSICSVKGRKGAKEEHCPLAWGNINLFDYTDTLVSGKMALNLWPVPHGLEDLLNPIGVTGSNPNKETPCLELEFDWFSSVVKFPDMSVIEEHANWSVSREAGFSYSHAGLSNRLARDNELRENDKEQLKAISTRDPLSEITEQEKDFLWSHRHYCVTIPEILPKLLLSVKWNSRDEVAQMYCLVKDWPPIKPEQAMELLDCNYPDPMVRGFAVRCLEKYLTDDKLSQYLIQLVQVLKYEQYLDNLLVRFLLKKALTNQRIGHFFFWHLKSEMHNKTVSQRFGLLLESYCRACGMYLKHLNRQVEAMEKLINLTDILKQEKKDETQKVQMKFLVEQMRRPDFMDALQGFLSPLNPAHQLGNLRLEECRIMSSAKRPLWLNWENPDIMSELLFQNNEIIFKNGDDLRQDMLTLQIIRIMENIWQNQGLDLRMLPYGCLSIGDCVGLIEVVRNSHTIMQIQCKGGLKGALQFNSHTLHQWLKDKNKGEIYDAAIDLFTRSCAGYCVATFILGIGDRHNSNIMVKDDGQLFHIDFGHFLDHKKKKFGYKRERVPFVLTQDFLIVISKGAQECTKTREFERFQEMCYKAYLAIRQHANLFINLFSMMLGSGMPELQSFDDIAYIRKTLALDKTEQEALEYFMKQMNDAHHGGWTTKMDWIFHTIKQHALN

Legend:
[1] = biological target: Phosphatidylinositol 4,5-bisphosphate 3-kinase catalytic subunit gamma isoform (Homo sapiens, UniProt P48736); assay: biochemical
[2] = biological target: T1, PI3-kinase p110-delta/p85-alpha (Homo sapiens, UniProt O00329); assay: Binding affinity to human recombinant full length N-terminal GST-tagged PI3K p110delta/p85alpha coexpressed in baculovirus infected Sf9 insect cells by equilibrium fluorescence titration analysis
[3] = biological target: T2, Phosphatidylinositol 4,5-bisphosphate 3-kinase catalytic subunit delta isoform (Homo sapiens, UniProt O00329); assay: Inhibition of PI3Kdelta in IgM-stimulated human Raji cells assessed as reduction in AKT phosphorylation at S473 incubated for 30 mins followed by stimulation with IgM for 30 mins by ELISA; assay type: cell-based
T2 sequence (O00329 whole entry): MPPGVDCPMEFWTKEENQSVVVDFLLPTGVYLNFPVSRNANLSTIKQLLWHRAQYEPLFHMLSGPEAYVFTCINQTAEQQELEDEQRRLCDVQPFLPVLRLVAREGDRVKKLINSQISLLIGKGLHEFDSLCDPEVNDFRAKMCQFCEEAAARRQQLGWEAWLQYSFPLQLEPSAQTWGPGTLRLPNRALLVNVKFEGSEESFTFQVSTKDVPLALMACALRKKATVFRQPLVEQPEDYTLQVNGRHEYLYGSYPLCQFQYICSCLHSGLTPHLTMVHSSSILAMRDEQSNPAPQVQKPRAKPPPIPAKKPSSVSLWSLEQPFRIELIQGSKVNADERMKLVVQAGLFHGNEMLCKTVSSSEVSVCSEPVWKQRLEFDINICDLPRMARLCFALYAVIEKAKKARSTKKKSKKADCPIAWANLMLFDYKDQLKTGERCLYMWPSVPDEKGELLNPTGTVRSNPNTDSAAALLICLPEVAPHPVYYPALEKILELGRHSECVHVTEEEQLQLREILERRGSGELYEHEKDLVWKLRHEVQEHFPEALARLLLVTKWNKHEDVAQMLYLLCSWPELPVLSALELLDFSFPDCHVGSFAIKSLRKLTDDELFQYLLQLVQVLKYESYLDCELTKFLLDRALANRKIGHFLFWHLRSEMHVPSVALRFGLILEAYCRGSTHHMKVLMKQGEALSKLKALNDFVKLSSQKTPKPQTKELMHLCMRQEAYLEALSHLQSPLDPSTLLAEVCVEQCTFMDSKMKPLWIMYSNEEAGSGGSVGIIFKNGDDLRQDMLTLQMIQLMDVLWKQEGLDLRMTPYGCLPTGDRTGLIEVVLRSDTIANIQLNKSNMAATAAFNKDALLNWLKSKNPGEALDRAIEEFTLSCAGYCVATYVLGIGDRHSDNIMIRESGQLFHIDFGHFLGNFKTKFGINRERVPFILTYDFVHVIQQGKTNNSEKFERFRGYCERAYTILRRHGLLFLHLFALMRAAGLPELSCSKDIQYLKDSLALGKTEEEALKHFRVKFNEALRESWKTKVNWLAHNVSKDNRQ

[4] = biological target: Phosphatidylinositol 4,5-bisphosphate 3-kinase catalytic subunit alpha isoform (Homo sapiens, UniProt P42336); assay: Inhibition of PI3Kalpha in human SKOV-3 cells assessed as reduction in AKT phosphorylation at S473 after 30 mins by ELISA; assay type: cell-based, SK-OV-3
[5] = biological target: T3, PI3-kinase p110-alpha/p85-alpha (Homo sapiens, UniProt P42336); assay: Binding affinity to human recombinant full length N-terminal His6-tagged PI3K p110alpha/p85alpha coexpressed in baculovirus infected Sf9 insect cells by equilibrium fluorescence titration analysis
[6] = biological target: T3, PI3-kinase p110-alpha/p85-alpha; assay: Inhibition of human recombinant full length N-terminal His6-tagged PI3K p110alpha/p85alpha coexpressed in baculovirus infected Sf9 insect cells using diC8PIP2 as substrate incubated for 15 mins followed by substrate addition measured after 2 hr by ADP-Glo luminescence assay
[7] = biological target: T1, PI3-kinase p110-delta/p85-alpha; assay: Inhibition of human recombinant full length N-terminal GST-tagged PI3K p110delta/p85alpha coexpressed in baculovirus infected Sf9 insect cells using diC8PIP2 as substrate incubated for 15 mins followed by substrate addition measured after 2 hr by ADP-Glo luminescence assay

C[C@H](NC(=O)c1c(N)nn2ccccc12)c1cc2cccc(Cl)c2c(=O)n1-c1ccccc1
IC50 [1]: 300 nM

C[C@H](NC(=O)c1c(N)nn2cccnc12)c1cc2cccc(C#Cc3cnn(C)c3)c2c(=O)n1-c1ccccc1 [EGANELISIB]
Kd [2]: 23 nM | IC50 [3]: 180 nM | IC50 [4]: 250 nM | Kd [5]: 17 nM | IC50 [6]: 3200 nM | IC50 [7]: > 8400 nM
